Results on two molecules are retold here after publication PMC4661386 (2015).

The target in test [1] is T1, Recombinant human heavy chain 1 (rHC1) D298A mutant (human, UniProt P19827 35-672, D298A).
T1 sequence: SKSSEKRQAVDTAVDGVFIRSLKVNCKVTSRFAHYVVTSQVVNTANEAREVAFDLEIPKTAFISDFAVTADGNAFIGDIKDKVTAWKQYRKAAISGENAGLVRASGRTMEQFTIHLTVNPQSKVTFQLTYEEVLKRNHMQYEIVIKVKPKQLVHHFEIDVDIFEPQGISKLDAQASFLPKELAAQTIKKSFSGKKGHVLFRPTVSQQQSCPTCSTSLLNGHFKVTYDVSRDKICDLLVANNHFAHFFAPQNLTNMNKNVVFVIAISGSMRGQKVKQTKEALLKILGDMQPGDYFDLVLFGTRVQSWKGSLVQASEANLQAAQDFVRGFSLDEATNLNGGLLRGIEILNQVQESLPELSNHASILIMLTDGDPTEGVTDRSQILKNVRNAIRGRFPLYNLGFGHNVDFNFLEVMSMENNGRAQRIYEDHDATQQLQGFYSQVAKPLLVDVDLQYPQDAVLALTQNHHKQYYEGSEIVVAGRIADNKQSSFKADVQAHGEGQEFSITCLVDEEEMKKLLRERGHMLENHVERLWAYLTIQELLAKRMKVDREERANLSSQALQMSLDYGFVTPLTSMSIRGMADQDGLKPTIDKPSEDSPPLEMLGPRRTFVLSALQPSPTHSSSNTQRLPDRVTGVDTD
Nature of the test: SPR.

Test [2] addresses T2, Recombinant human heavy chain 1 (rHC1) of inter-alpha-inhibitor, wild type (human, UniProt P19827 35-672).
T2 chain: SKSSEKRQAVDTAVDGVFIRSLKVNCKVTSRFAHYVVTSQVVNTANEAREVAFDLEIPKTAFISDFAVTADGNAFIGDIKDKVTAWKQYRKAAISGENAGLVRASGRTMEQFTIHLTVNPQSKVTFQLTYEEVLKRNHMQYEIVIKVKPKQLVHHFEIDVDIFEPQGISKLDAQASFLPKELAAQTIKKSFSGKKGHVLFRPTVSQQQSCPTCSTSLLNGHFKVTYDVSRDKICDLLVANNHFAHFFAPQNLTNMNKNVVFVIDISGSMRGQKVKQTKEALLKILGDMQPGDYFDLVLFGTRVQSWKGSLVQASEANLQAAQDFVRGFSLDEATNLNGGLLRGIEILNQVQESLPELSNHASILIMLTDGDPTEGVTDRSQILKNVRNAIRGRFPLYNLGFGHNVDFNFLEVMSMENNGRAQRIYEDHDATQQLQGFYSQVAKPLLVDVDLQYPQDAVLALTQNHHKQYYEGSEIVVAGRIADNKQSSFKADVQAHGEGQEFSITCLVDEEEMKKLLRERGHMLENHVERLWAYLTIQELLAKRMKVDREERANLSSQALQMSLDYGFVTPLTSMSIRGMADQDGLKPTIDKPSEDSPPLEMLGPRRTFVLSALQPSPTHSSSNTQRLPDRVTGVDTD
Nature of the test: SPR. On the technique in general: Surface plasmon resonance follows binding to a sensor surface in real time, without labels.

Test [3] concerns the target T1, Recombinant human heavy chain 1 (rHC1) …. Put plainly: SPR. This is another data set of the same source.
Test [4] concerns the target T2, Recombinant human heavy chain 1 (rHC1) …. Nature of the test: SPR.
Test [5] deals with T1, Recombinant human heavy chain 1 (rHC1) …. Put plainly: SPR; + 10 mM EDTA.
Test [6] shares this target. Nature of the test: SPR; + 10 mM EDTA. The source holds these as a separate data set.

B1: Link_TSG6 (recombinant Link module from human TSG-6) (domain or fragment)
chain: GVYHREARSGKYKLTYAEAKAVCEFEGGHLATYKQLEAARKIGFHVCAAGWMAKGRVGYPIVKPGPNCGFGKTGIIDYGIRLNRSERWDAYCYNPHAK
Broadly, the Kd is the equilibrium constant for the complex coming apart. As usually defined, the koff is a measure of how fast the partners let go of each other. For B1, the Kd is 2.8 nM in test [1] and 2.6 nM in test [2]. Also, the koff in test [3] and in test [4] was 0.0014 s⁻¹ throughout.

B2: Full-length human TSG-6 (rhTSG-6), wild type (natural protein)
chain: WGFKDGIFHNSIWLERAAGVYHREARSGKYKLTYAEAKAVCEFEGGHLATYKQLEAARKIGFHVCAAGWMAKGRVGYPIVKPGPNCGFGKTGIIDYGIRLNRSERWDAYCYNPHAKECGGVFTDPKQIFKSPGFPNEYEDNQICYWHIRLKYGQRIHLSFLDFDLEDDPGCLADYVEIYDSYDDVHGFVGRYCGDELPDDIISTGNVMTLKFLSDASVTAGGFQIKYVAMDPVSKSSQGKNTSTTSTGNKNFLAGRFSHL
Regarding B2, the dissociation constant Kd in test [5] is 4.4 nM. In test [6], the dissociation rate constant (koff) is 0.003 s⁻¹.
